Broadly, the inhibition is how much of the control response was suppressed.

Each structure is given as a SMILES string. This is a selection; strong and weak results do not stand in their true shares. Active and inactive are the calls of the source.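 Rule for the calls: active = mean inhibition above 50% across duplicate retests at 10 µM; inactive = the rest.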

From PubChem BioAssay AID488841 (Sanford-Burnham Center for Chemical Genomics, 2010) come the findings set out here.

The nature of the assay: yeast NALP1 reporter signal suppression – S. cerevisiae, luminescence, single concentration, NALP1 inhibitor project, confirmation (AID 488841).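 Note: plate controls were DMSO in galactose medium for no effect and cells in plain SD medium for full effect.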 Conditions: S. cerevisiae NALP1/ASC/Caspase-1 reporter, beta-gal luminescence; at 10 µM; stronger effect = higher value.
Consider `CCN1CCC(Nc2cccc(F)c2)CC1`, for which the inhibition is inactive: 24.1%.
